Experimental findings from PubChem BioAssay AID489030 (Sanford-Burnham Center for Chemical Genomics, 2010) are described below.

By UniProt entry, the sequences of proteins in these tests, tags left out. Where a name states a change or a piece, a line headed by the entry shows the natural chain unless it says otherwise.
UniProt O14727: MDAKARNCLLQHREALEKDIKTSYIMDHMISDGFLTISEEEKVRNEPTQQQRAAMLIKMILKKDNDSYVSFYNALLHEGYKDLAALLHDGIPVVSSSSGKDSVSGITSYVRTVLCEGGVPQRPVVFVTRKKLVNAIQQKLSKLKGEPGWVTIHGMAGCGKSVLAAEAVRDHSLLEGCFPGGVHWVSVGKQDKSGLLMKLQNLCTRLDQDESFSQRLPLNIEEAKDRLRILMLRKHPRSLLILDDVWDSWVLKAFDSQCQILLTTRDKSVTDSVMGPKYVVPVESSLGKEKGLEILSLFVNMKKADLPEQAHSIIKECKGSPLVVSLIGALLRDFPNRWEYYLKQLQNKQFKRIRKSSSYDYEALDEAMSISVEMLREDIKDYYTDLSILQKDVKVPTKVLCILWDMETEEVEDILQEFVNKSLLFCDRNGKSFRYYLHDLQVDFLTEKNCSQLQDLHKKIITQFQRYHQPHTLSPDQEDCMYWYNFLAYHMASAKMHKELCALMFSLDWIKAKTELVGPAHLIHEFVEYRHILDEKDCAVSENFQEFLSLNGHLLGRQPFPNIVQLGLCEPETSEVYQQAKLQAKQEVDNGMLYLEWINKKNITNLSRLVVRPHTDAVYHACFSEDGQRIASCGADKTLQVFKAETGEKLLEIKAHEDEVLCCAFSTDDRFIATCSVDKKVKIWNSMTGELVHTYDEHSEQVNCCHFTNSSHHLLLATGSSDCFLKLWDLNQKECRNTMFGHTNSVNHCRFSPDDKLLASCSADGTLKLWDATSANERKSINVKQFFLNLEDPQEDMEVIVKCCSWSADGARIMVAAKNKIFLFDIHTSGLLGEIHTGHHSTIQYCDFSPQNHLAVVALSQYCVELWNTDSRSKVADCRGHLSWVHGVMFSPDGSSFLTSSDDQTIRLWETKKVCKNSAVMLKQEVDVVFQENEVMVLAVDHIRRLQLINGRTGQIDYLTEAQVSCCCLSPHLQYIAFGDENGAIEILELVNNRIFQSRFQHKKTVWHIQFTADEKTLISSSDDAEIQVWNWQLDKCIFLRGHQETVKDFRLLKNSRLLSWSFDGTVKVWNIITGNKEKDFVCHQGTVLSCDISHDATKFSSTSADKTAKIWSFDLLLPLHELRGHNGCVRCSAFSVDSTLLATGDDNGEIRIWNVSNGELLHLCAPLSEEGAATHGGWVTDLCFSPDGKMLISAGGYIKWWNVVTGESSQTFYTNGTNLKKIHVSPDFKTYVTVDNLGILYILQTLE

The structures appear in SMILES notation. The entries are a selection whose mix differs from that of the whole data set. The source made the active and inactive calls. The calls were made as follows: active = inhibition of at least 40% at 20 µM; inactive = the rest.

The assay concerns the target Apoptotic protease-activating factor 1 (Homo sapiens) (UniProt O14727). Description: blockers of Apaf-1-driven caspase-3 activation – biochemical, DEVD-Rh110 fluorescence, uHTS, primary screen (AID 489030).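 Also: plate controls were DMSO wells for no effect and DEVD-CHO caspase inhibitor wells for full effect.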 The note with it: reconstituted apoptosome caspase-3 activity, at 20 µM, hits give high values.
With `Cc1cc(SC(NC(=O)c2ccccc2)C(Cl)(Cl)Cl)nc(C(C)C)n1` (stereo not drawn), the inhibition is inactive: 1.72%. Take `CCCCOc1ccc(C(=O)NCC2(N3CCCCC3)CCCCC2)cc1OC`: the inhibition was inactive: -4.39%. To `CCOC(=O)Nc1ccc([As](=O)(O)O)c(O)c1` belongs inactive: 0.404%; to `O=P(Nc1ccccn1)(c1cccc2ccccc12)c1cccc2ccccc12`, inactive: 17.1%.

As for `Cc1cc(SC(NC=O)C(Cl)(Cl)Cl)ncn1` (stereo not drawn), the inhibition was inactive: 1.18%. `CCOC(=O)Nc1cccc([As](=O)(O)O)c1`: the inhibition was inactive: -5.7%. As for `O=C(Nc1ccncc1[N+](=O)[O-])c1ccc([N+](=O)[O-])cc1[N+](=O)[O-]`, the inhibition is inactive: -2.59%.

In the case of `O=C(COc1ccccc1)OC1CN2CCC1CC2` (stereo not drawn), the inhibition is inactive: 5.03%. `COP1(=S)c2c(C)nn(CCC#N)c2N=C(c2ccc(F)cc2)N1C` (stereo not drawn): the inhibition is inactive: -17%. To `CCC(C)N(CC(C)C)C(=S)SC(NC(C)=O)C(Cl)(Cl)Cl` (stereo not drawn) belongs inactive: -2.35%; to `O=C(OC1CN2CCC1CC2)c1cccc([N+](=O)[O-])c1` (stereo not drawn), inactive: -3.42%. Consider `CCOC(=O)c1ccc(NC(=O)C(C)(CCl)SC)cc1` (stereo not drawn), for which the inhibition is inactive: -1.16%.

As for `COc1cc(I)ccc1[As](=O)(O)O`, the inhibition was inactive: -15.2%.

`COc1ccc2nc(NP(=O)(c3ccccc3)c3ccccc3)sc2c1`: the inhibition is inactive: 2%.

Turning to `Cc1c2c(nc3ccccc13)SC(C(Cl)Cl)C2` (stereo not drawn), the inhibition is inactive: -0.301%. Consider `Cc1cc(=O)[nH]c(N[N+](=O)[O-])n1`, for which the inhibition was inactive: -3.84%. Regarding `O=C(OC1CN2CCC1CC2)C12CC3CC(CC(C3)C1)C2` (stereo not drawn), the inhibition was inactive: 7.92%. To `COc1ccc(N/C(=N/P(=O)(N2CCOCC2)N2CCOCC2)N2CCOCC2)cc1` belongs inactive: -5.05%; to `Cc1ccc(OP(=O)(Nc2ccc([N+](=O)[O-])cn2)Oc2ccc(C)cc2)cc1`, inactive: 20.5%; to `Cc1ccc2nc3c(c(C)c2c1)CC(C(Cl)Cl)S3` (stereo not drawn), inactive: 8.94%. On to `COc1cc(C(=O)NCC2(N3CCOCC3)CCCCC2)ccc1OCC(C)C`, for which the inhibition was inactive: 6.76%. As for `C[As](=O)(O)c1cccc(C(=O)O)c1`, the inhibition is inactive: 0.19%.

In the case of `O=[As](O)(c1ccc(O)cc1)c1ccccc1O`, the inhibition was inactive: -244%. With `O=[N+]([O-])c1cc([N+](=O)[O-])c(-c2ccn[nH]2)s1`, the inhibition was inactive: 3.93%.

As to `O=C(OC1CN2CCC1CC2)c1cccc2[nH]cnc12` (stereo not drawn), the inhibition is inactive: 0.405%. The same measure for `CCN(CC)C(=S)SC(NC=O)C(Cl)(Cl)Cl` (stereo not drawn): inactive: 2.75%; for `CC(C)NC(=O)NP(=O)(Oc1ccccc1)Oc1ccccc1`: inactive: -7.79%; for `ClCCSc1nnc(-c2cccnc2)o1`: inactive: -30.6%.

The term inhibition denotes the change of the read-out against control, counted positive when it falls.
